The values that follow come from patent US9040261B2, “Compounds as L-cystine crystallization inhibitors and uses thereof” (NEW YORK UNIVERSITY, priority 2009, dated 2015).

This experiment can be described thus: Bulk crystallization of L-cystine in the presence of additives (mass yield). The method, then: Alternately, the hexagonal crystals can be obtained by crystallization performed near neutral pH (Sa) The hexagonal form was crystallized from a supersaturated L-cystine solution prepared by adding 70 mg of L-cystine to 100 mL of deionized water (3 mM), and heating under reflux at 100° C. for 20 min with stirring to completely dissolve L-cystine. […] This concentration was used for bulk crystallization studies in the presence of additives so that a measurable amount of bulk crystals could be obtained in a reasonable time. The solution was then allowed to cool slowly with stirring for 75 min. 30 mL aliquots were transferred to separate glass containers, which were then sealed to prevent evaporation and exposure to airborne particulates and stored for 72 hours at room temperature without stirring. […] The crystals retrieved in this manner were used for AFM studies by mounting individual crystals according to the procedure described below.
Various proteins, poly-amino acids, and molecular mimics of L-cystine were examined as additives. The aforementioned procedure for hexagonal platelet crystallization was repeated. […]
L-cystine bulk crystallization was investigated in the presence of various polymers, urinary constituents, fish antifreeze proteins (AFPs), and L-cystine derivatives (i.e. structural mimics of L-cystine), which were analyzed as possible growth inhibitors of hexagonal L-cystine. […]

As to “Human serum albumin: human serum albumin (fatty-acid free, 99%)”, for the setting “2 mg/L additive, 0.7 g/L L-cystine (pH 6.8), no additive 80, approximate error ±8%”, the “Yield (%) = (collected mass by filtration, >11 μm)/(total mass added) × 100%” value stood at 63%. Further, the “influence on L-cystine growth” value (polymers and proteins with proximal carboxylate and amine groups, Table 1) is “negligible influence”.
